pKd: −log10 of the molar value. Only a part of the results on these compounds is given; other tests are left out.
Biological target: mouse DOR (Mus musculus, UniProt P32300)
Experiment: [[…] binding (saturation and competitive) in DOR membranes
Details: read-out: Kd of [3H]diprenorphine, saturation binding

Protein sequences, listed by entry. Tags and fused reporters are not part of them.
UniProt P32300, whole entry: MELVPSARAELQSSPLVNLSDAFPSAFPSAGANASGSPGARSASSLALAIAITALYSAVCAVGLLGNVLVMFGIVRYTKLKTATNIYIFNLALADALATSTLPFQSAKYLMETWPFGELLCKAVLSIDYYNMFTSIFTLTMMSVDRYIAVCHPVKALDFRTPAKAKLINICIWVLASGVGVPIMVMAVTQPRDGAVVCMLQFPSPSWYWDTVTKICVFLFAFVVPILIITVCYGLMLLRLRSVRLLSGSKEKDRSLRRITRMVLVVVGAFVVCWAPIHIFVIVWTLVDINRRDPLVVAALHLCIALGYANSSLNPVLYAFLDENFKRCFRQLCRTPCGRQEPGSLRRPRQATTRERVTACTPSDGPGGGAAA

Question: With [3H]diprenorphine as the substance, how does the pKd read?
Answer: 9.36

From US20110195433A1 (priority 2007, published 2011)
